The target in the assay is human CDK9/CyclinT kinase complex (Homo sapiens (Human), UniProt P50750). In words: In Vitro CDK9/CyclinT Assay (IMAP fluorescent polarization). The assay is classed as biochemical.

Chains of the proteins cited; added tags and fusions are not shown.
UniProt P50750, whole entry: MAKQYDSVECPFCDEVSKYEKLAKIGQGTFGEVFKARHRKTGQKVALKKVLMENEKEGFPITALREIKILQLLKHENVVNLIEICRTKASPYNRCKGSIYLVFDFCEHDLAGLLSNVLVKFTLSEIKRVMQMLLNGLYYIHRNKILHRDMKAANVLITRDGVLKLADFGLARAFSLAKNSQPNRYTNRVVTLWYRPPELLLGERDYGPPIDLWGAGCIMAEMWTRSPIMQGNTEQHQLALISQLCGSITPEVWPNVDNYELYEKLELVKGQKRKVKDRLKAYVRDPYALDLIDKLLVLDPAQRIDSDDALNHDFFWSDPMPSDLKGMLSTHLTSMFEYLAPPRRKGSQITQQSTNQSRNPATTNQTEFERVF

One may read the IC50 as the concentration needed to halve the response being measured. A higher IC50 goes with a need for much substance. In turn, `COc1ccc(Nc2cc(-c3ccccc3OC)ncn2)cc1CN(C)C` [Example 35, N-(3-((Dimethylamino)methyl)-4-methoxyphenyl)-6-(2-methoxyphenyl)pyrimidin-4-amine] displayed an IC50 of less than 100 nM.

The values above are taken from patent publication US9617225B2 (VIROSTATICS SRL, priority 2012, dated 2017).
